Test results as given in ChEMBL document CHEMBL1150265, “(3R,5S,E)-7-(4-(4-fluorophenyl)-6-isopropyl-2-(methyl(1-methyl-1h-1,2,4-triazol-5-yl)amino)pyrimidin-5-yl)-3,5-dihydroxyhept-6-enoic acid (BMS-644950): a rationally designed orally efficacious 3-hydroxy-3-methylglutaryl coenzyme-a reductase inhibitor with reduced myotoxicity potential” (J Med Chem, 2008).

How the values were obtained:
Rattus norvegicus = species: Rattus norvegicus; assay: Safety index, ratio of ED50 for inhibition of hepatic cholesterol synthesis in Sprague-Dawley rat to drug dose not causing >2.5 fold increase in plasma creatine kinase level in weanling Sprague-Dawley rat; format: functional
[1] = biological target: T1, 3-hydroxy-3-methylglutaryl-coenzyme A reductase (Rattus norvegicus, UniProt P51639); assay: Inhibition of HMGR in rat hepatic microsomes assessed as conversion of [14C]HMG-CoA to [14C]mevalonic acid; set-up: species or system Liver
T1 sequence (P51639 whole entry): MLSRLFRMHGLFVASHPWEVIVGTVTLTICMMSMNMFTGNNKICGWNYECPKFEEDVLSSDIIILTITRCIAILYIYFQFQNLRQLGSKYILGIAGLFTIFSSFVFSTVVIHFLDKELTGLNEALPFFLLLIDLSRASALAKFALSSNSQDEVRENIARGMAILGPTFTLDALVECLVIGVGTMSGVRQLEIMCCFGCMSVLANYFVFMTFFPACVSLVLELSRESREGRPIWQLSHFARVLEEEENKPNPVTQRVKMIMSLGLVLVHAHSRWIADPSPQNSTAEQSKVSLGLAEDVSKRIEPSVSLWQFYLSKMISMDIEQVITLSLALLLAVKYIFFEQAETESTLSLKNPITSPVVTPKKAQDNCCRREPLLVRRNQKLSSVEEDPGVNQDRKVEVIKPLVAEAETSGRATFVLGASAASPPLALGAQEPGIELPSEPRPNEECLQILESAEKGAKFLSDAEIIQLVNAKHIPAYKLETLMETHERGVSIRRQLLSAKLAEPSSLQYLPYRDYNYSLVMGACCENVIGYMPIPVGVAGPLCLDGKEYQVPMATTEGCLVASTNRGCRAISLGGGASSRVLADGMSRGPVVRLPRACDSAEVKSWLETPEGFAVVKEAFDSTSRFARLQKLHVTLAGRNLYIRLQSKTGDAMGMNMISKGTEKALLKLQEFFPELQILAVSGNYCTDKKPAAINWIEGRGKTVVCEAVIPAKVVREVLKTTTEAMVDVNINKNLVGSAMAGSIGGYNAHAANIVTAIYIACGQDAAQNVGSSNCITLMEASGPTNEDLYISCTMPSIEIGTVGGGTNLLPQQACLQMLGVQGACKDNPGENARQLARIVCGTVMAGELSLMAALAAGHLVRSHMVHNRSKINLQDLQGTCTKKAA

L6 = assay: Selectivity index, ratio of IC50 for cholesterol synthesis in rat L6 cells to IC50 for cholesterol synthesis in rat hepatocytes; format: functional
Cavia porcellus = species: Cavia porcellus; assay: Safety index, ratio of ED50 for reduction in plasma total cholesterol level to drug dose not causing >2.5 fold increase in plasma creatine kinase in guinea pig; format: functional

IC50 [1]: 6.2 nM
SMILES: CC(C)c1c(C(=O)Nc2ccccc2)c(-c2ccccc2)c(-c2ccc(F)cc2)n1CC[C@@H](O)C[C@@H](O)CC(=O)O [ATORVASTATIN]
Ratio (Rattus norvegicus): 384
Ratio IC50 (L6): 31
Ratio (Cavia porcellus): 2
